In assay [1] the target is T1, plasmin originating from swine blood (Sus scrofa, UniProt P06867).
T1 construct: from tissue; host or cells: swine blood
Description: Stabilizing effect of amino acids on plasmin solution, residual plasmin activity (casein) on storage. The note with it: about 0.4 plasmin unit per ml, phosphate buffer pH 7.5, 0.25 millimole amino acid per plasmin unit (or saturated), % of initial activity; for % activity after 120 minutes at 35.5°C: without amino acid 43; for % activity after 60 minutes at 35.5°C: without amino acid 55. The format is biochemical.

The chains behind the UniProt entries cited, without tags or fusion partners. Residues count along the entry.
UniProt P06867, 97-579 limits assumed: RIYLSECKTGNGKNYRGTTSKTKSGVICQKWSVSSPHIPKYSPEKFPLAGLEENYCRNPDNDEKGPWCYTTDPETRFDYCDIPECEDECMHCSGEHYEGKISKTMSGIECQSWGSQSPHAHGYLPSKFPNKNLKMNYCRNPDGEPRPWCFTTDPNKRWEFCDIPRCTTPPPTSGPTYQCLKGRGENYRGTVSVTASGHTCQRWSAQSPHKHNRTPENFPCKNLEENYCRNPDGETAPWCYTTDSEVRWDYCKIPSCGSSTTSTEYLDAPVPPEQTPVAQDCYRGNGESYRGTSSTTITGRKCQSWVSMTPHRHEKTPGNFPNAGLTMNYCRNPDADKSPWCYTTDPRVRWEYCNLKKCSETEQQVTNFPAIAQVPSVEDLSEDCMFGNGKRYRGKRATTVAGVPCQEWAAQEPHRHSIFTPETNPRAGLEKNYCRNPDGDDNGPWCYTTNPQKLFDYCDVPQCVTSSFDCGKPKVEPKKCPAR
UniProt P06867, 580-809 limits assumed: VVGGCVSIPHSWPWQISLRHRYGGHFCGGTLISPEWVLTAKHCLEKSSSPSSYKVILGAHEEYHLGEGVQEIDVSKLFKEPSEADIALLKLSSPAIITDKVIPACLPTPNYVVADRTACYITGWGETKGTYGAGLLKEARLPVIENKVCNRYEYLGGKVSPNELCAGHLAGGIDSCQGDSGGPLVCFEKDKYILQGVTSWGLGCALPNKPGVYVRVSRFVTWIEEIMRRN
UniProt P00747, 97-580: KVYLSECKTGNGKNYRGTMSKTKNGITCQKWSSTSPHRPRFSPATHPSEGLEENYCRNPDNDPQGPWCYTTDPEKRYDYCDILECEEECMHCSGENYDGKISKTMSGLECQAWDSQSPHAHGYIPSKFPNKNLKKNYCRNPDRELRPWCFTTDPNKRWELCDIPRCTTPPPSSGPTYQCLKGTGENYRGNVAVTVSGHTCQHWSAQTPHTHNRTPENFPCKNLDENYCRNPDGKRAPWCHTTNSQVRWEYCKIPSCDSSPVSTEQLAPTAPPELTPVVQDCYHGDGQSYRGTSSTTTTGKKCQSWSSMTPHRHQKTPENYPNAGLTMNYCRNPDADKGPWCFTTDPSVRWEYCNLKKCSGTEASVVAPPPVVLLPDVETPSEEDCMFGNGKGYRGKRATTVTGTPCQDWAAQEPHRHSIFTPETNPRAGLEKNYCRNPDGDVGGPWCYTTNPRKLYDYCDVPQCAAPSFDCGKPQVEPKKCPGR
UniProt P00747, 581-810: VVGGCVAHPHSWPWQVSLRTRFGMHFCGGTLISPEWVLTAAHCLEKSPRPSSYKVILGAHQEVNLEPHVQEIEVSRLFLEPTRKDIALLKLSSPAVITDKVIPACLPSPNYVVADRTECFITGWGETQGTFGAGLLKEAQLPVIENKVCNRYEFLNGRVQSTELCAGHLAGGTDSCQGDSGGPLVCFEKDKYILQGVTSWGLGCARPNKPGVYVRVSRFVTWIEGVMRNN
UniProt P06868, 584-812 limits assumed: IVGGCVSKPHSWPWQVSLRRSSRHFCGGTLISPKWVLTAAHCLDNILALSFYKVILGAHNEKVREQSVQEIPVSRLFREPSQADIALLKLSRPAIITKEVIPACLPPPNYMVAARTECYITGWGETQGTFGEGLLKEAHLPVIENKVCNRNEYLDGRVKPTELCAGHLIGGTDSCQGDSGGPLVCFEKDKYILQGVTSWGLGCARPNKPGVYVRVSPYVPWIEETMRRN
UniProt P06868, 104-583 limits assumed: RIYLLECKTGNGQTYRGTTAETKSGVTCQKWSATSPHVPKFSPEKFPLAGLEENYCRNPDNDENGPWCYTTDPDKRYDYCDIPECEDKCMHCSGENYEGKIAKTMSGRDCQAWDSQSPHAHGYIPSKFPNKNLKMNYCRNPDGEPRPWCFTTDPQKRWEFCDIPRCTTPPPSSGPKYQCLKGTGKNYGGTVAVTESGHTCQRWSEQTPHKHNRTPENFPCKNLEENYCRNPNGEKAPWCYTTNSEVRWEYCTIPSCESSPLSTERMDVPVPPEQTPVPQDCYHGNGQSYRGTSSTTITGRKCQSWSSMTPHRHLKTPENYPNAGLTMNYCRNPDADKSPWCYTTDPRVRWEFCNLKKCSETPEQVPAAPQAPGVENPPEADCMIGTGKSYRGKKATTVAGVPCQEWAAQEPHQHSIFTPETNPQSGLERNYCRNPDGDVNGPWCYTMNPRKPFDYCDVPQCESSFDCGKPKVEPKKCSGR

For assay [2], the target named is T2, plasmin originating from human blood (Homo sapiens, UniProt P00747).
T2 construct: from tissue; host or cells: human blood
Description: Stabilizing effect of amino acids on plasmin solution from human blood. The format is biochemical. As to conditions: 0.25 millimole amino acid per plasmin unit; for % activity after 60 min. at 35.5°C: without amino acid 55.

Assay [3] addresses T3, plasmin originating from ox blood (Bos taurus, UniProt P06868).
T3 construct: from tissue; host or cells: ox blood
Description: Stabilizing effect of amino acids on plasmin solution from ox blood. The note with it: 0.25 millimole amino acid per plasmin unit; for % activity after 60 min. at 35.5°C: without amino acid 60. The format is biochemical.

A further assay addresses plasmin (Sus scrofa, UniProt P06867). Put plainly: Activity of plasmin solution with varying amounts of L-lysine stored at 35.5°C and 25°C. Format: biochemical, swine.
Setting [4] is: 0.031 millimole L-lysine per plasmin unit, 0.4 plasmin units per ml.

Each structure is given as a SMILES string. Where a SMILES comes first, the peptide text is derived from it.

On to `Nc1cccc(C(=O)O)c1` [m-amino benzoic acid], for which, in assay [1], the “% activity after 120 minutes at 35.5°C” value worked out at 52% and the “% activity after 60 minutes at 35.5°C” value came to 73%.

`N[C@@H](CC(=O)O)C(=O)O` [L(+)-aspartic acid]: in assay [1], the “% activity after 120 minutes at 35.5°C” value turned out to be 51% and the “% activity after 60 minutes at 35.5°C” value is on record as 60%.

With `CC[C@H](C)[C@H](N)C(=O)O` (racemic) [DL-isoleucine], in assay [1], the “% activity after 120 minutes at 35.5°C” value worked out at 57% and the “% activity after 60 minutes at 35.5°C” value came out at 77%.

As for `NC(Cc1ccccc1)C(=O)O` (racemic) [DL-phenyl analine], in assay [1], the “% activity after 120 minutes at 35.5°C” value is 55% and the “% activity after 60 minutes at 35.5°C” value was determined as 73%.

Turning to `O=C(O)[C@@H]1C[C@@H](O)CN1` [L(-)-hydroxyproline], in assay [1], the “% activity after 120 minutes at 35.5°C” value amounted to 66% and the “% activity after 60 minutes at 35.5°C” value came to 69%.

For the compound `Nc1ccc(C(=O)O)cc1` [p-amino benzoic acid], in assay [1], the “% activity after 120 minutes at 35.5°C” value stood at 63% and the “% activity after 60 minutes at 35.5°C” value amounted to 77%.

On to `CC(C)C(N)C(=O)O` (racemic) [DL-valine], for which, in assay [1], the “% activity after 120 minutes at 35.5°C” value stood at 49% and the “% activity after 60 minutes at 35.5°C” value is reported as 60%.

For the compound `N[C@@H](Cc1c[nH]cn1)C(=O)O` [L-histidine], in assay [1], the “% activity after 120 minutes at 35.5°C” value is listed as 61% and the “% activity after 60 minutes at 35.5°C” value came to 64%.

With `CC(=O)N[C@@H](CCCNC(=N)N)C(=O)O` [α-N-acetyl-L-arginine], in assay [1], the “% activity after 120 minutes at 35.5°C” value is given as 87% and the “% activity after 60 minutes at 35.5°C” value amounted to 92%.

Consider `CCCCC(N)C(=O)O` (racemic) [DL-norleucine], for which, in assay [1], the “% activity after 120 minutes at 35.5°C” value stood at 59% and the “% activity after 60 minutes at 35.5°C” value was 72%.

As for `NCC(=O)NCC(=O)O` [Glycyl glycine] (H-Gly-Gly-OH), in assay [1], the “% activity after 120 minutes at 35.5°C” value came to 77% and the “% activity after 60 minutes at 35.5°C” value is 88%.

For `NC(=O)NCCC[C@H](N)C(=O)O` [L(+)-citrulline], in assay [1], the “% activity after 120 minutes at 35.5°C” value was 54% and the “% activity after 60 minutes at 35.5°C” value is on record as 64%.

As to `N=C(N)NCC(=O)O` [Guanidino acetic acid], in assay [1], the “% activity after 120 minutes at 35.5°C” value was found to be 68% and the “% activity after 60 minutes at 35.5°C” value was 80%.

Turning to `CN(CC(=O)O)C(=N)N` [Creatine], in assay [1], the “% activity after 120 minutes at 35.5°C” value is recorded as 60% and the “% activity after 60 minutes at 35.5°C” value is recorded as 81%.

As to `NCCCCCC(=O)O` [ε-amino caproic acid], the “% activity after 120 min. at 35.5°C” value in assay [2] (without amino acid 32) is listed as 96%; in assay [3] (without amino acid 45), 99%. Also, the entries for the “% activity after 60 min. at 35.5°C” value in assay [2] and in assay [3] were 94% and 100%, respectively. The “% activity after 120 minutes at 35.5°C” value in assay [1] came to 80%. Moreover, the “% activity after 60 minutes at 35.5°C” value in assay [1] came out at 85%.

Take `NCCCC[C@H](N)C(=O)O` [L-lysine]: the “% activity after 60 min. at 35.5°C” value in assay [2] came to 87%; at plasmin (setting [4]), 74%; on plasmin (0.25 millimole L-lysine per plasmin unit, 0.4 plasmin units per ml (Table VI)), 100%; in assay [3] it was 85%. The “% activity after 120 min. at 35.5°C” value on plasmin (setting [4]) is reported as 52%; on plasmin (0.062 millimole L-lysine per plasmin unit, 0.4 plasmin units per ml) it was 73%.

Take `NC(Cc1c[nH]c2ccccc12)C(=O)O` (racemic) [DL-thrypthophane]: in assay [1], the “% activity after 120 minutes at 35.5°C” value was 48% and the “% activity after 60 minutes at 35.5°C” value was 60%.

As to `Nc1ccccc1C(=O)O` [o-amino benzoic acid], in assay [1], the “% activity after 120 minutes at 35.5°C” value is recorded as 68% and the “% activity after 60 minutes at 35.5°C” value came to 79%.

As to `CC(C)CC(N)C(=O)O` (racemic) [DL-leucine], in assay [1], the “% activity after 120 minutes at 35.5°C” value was 53% and the “% activity after 60 minutes at 35.5°C” value was found to be 72%.

Turning to `N=C(N)NCCC[C@H](N)C(=O)O` [L-arginine], in assay [1], the “% activity after 60 minutes at 35.5°C” value stood at 78%. Further, the “% activity after 60 min. at 35.5°C” value in assay [3] stood at 86%.

For the compound `NCCCC(=O)O` [γ-amino butyric acid], the “% activity after 60 minutes at 35.5°C” value in assay [1] turned out to be 97%.

The record behind these values is patent US3950513A, “Process of stabilizing therapeutically useful plasmin solutions” (Novo Terapeutisk Laboratorium A/S, priority 1969, dated 1976).
